Yeast mating assay 1: variants of the scFv Ab-14

Target: peptide PDVDLGDISGINAS, taken from heptad repeat 2 (HR2) of SARS-CoV-2 spike.

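The starting antibody came from a phage panning campaign against this peptide. The library (AAYL49) carries one to three amino acid substitutions per variant, with no insertions or deletions. AlphaSeq pools MATa yeast showing the antibodies with MATalpha yeast showing the peptide. Pairs that bind mate more often; barcode pairs of the diploids are counted by sequencing. Read counts were normalised to the haploid input and turned into Kd by a linear fit to BCL2-family pairs of known affinity, for each replicate. Mating was done three times.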

Parent: Ab-14, a human scFv built as VH, a 15-residue (Gly4Ser)3 linker, VL. Only the CDRs of the heavy chain vary.
VH: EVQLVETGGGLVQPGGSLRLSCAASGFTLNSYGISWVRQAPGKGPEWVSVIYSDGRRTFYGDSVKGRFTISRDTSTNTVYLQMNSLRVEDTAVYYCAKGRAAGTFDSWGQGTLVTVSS
VL: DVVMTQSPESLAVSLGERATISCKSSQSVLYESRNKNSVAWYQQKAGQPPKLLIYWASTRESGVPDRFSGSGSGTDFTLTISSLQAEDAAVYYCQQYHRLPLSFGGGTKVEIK

Changes read parent residue, position, new residue, counted from the first residue of the VH shown.
The read-out is the apparent dissociation constant on a log10 scale (nM): the lower, the stronger.
Replicates are averaged; those with no signal do not enter the mean.
Where no diploid with the target was found in any replicate, the entry reads "no signal": below detection, most likely a poor binder, though not proof of it.
Nonspecific signal, from three strains lacking the peptide, appeared in 15% of pairings of library AAYL49, centred on 4.06 (5% of these signals below 2.83); values are not corrected for it.

changes,"mean, log10 nM",detected
R100Y D106E,2.41,3 of 3
V64E K65V R100P,no signal,0 of 3
R100A D106F,no signal,0 of 3
V50T G55D A102F,2.72,1 of 3
F27C S35Q F105V,no signal,0 of 3
Y52P R56Q D62W,5.42,1 of 3
T28M G55M A102D,no signal,0 of 3
R56A Y60I,2.36,1 of 3
Y32A Y52C G99P,5.33,2 of 3
Y32I I34W G61V,no signal,0 of 3
S53W R56D Y60M,4.47,2 of 3
V50G D54N R57N,no signal,0 of 3
S63E V64F G99S,1.75,3 of 3
T28D V50K S63P,4.16,1 of 3
L29T V64T F105C,no signal,0 of 3
N30C S35H S53V,3.29,1 of 3
S31C T58L F105C,no signal,0 of 3
T28S D62T S63A,no signal,0 of 3
G26P R57C,no signal,0 of 3
G61V V64C S107D,no signal,0 of 3
F27I G61M A101Y,2.38,1 of 3
T28V V64F,0.89,3 of 3
G26P T28E,2.70,3 of 3
F27S T58K A101K,no signal,0 of 3

Further variants, results first:

"mean, log10 nM",detected,changes
no signal,0 of 3,Y32I G55S G61S
3.95,2 of 3,G26L L29E Y60W
no signal,0 of 3,G33F G99V
no signal,0 of 3,G26F I51R G99E
5.10,2 of 3,N30S S31C G33M
5.22,1 of 3,D54R G99Y S107L
4.41,1 of 3,L29G Y52G D62I
3.38,2 of 3,Y52R A102T F105C
no signal,0 of 3,S31V I34N S63H
no signal,0 of 3,S35F I51P R56S
no signal,0 of 3,V50W F59T K65Y
no signal,0 of 3,Y52K T104C D106V
1.25,3 of 3,D62S G103W
3.37,3 of 3,V50T G99F
3.47,2 of 3,T58R G61H T104F
no signal,0 of 3,I34E G55T
no signal,0 of 3,T28K I34S S35H
2.62,3 of 3,F59E S63M T104S
4.66,3 of 3,G26A T28C T104N
1.82,3 of 3,A101C A102R T104V
3.29,3 of 3,S63M K65D D106K
5.05,1 of 3,R56H A101N F105E
5.36,1 of 3,K65V G103Q F105T
5.33,1 of 3,D54K Y60H

A selection of 5 entries from above:

changes	mean, log10 nM	detected
G26P R57C	no signal	0 of 3
Y32I I34W G61V	no signal	0 of 3
D62S G103W	1.25	3 of 3
S63E V64F G99S	1.75	3 of 3
T28S D62T S63A	no signal	0 of 3

Reference: Engelhart et al. 2022, doi:10.1038/s41597-022-01779-4. File: FLAb, binding data.